This test has as its target T1, TNIK (Homo sapiens, UniProt Q9UKE5).
T1 construct: kinase domain, DNA-tagged, KINOMEscan commercial panel
Nature of the test: KINOMEscan competition binding (immobilised reference ligand, qPCR). The following applies: read-out: % Ctrl / 10 μM. An excerpt: KINOMEscan competition binding (immobilised reference ligand, qPCR) on TNIK

By UniProt entry, the sequences of proteins in these tests, tags left out. Residues count along the entry.
UniProt Q9UKE5, 25-289 limits assumed: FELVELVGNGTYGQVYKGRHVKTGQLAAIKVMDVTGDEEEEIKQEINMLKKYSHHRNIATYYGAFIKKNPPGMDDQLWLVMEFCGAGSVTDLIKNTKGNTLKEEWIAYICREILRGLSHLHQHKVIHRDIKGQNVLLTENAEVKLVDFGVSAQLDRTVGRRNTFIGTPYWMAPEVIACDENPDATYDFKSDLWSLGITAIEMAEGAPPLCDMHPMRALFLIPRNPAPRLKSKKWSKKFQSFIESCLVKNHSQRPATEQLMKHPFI

This is an account of results in PMC5030704 (Scientific Reports, 2016).

SMILES strings stand for the structures.

In the case of `CCN(CC)CCNC(=O)c1c(C)[nH]c(/C=C2\C(=O)Nc3ccc(F)cc32)c1C` [Sunitinib], the remaining binding at 10 µM worked out at 0%.
